Earlier results on one compound are cited in paper PMC10952301, “Solid‐Phase Synthesis and Biological Evaluation of Peptides ADP‐Ribosylated at Histidine” (Angewandte Chemie (International Ed. in English), 2023).

SMILES strings stand for the structures.

The conditions of the data set: quoted without reference to compare leaving group capacity.

For the compound `c1c[nH]cn1` [imidazole], the pKa (commonly the pH at which an ionisable group is half protonated) was 14.5.
